# Test results reported in PubChem BioAssay AID504651 (National Center for Advancing Translational Sciences (NCATS), 2011).
# Sequences of proteins named here, by UniProt entry; tags and fusion partners are left off.
# UniProt P21728, whole entry: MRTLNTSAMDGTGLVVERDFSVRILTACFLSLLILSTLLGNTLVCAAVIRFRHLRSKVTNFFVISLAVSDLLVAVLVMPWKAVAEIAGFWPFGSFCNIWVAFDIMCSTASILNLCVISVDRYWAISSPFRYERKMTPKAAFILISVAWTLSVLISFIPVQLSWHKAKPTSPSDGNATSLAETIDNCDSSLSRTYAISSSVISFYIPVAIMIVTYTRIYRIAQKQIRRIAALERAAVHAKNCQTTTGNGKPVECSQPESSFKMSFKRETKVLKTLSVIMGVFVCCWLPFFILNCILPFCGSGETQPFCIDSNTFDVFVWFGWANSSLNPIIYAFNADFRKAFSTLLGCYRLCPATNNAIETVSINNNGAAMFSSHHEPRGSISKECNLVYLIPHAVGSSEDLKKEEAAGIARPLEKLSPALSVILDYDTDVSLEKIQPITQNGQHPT
# The list shows a part of the results, in another mix than the full data. Activity calls are given as the source filed them. No stated cut-off is given here; in the data, active means potentiation above about 30%; inactive means the rest.
# Target: D(1A) dopamine receptor (Homo sapiens) (UniProt P21728)
# Experiment: Potentiators of Human D1 Dopamine Receptor: qHTS; further: 0% is about no effect
# Conditions: HEK293 TREx D1 cells, calcium flux, dopamine EC20 potentiation; at 10 µM; hits give high values
# Description: Dopamine receptors (DARs) are involved in the etiology and/or therapy of a number of neuropsychiatric and endocrine disorders. For instance, all receptor-based antiparkinsonian drugs work via stimulating the D1 DAR subtype whereas all FDA-approved antipsychotic agents are antagonists of this receptor. […] There are three different types of allosteric modulators that we are seeking, two of which will stimulate or augment receptor signaling, allosteric agonists and potentiators, while the third, allosteric antagonists, will attenuate receptor signaling. The present primary screening assay measures compound potentiation of an EC20 dopamine response by tracking calcium flux in a […], inducible Hek293 Trex D1 cell line.
# NIH Chemical Genomics Center [NCGC]
# NIH Molecular Libraries Probe Centers Network [MLPCN]
# Assay Submitter (PI): David Sibley
# Freshly passaged cells are plated in 1536 well black, clear bottom plates at a density of 4000 cells/well in 3 ul of complete media containing 1x tetracycline inducer. After an overnight incubation at 30 C in 5% CO2, cells are loaded with 2 ul of the no wash Calcium Assay Kit (ABD Bioquest) and incubated at room temperature for 30 to 90 minutes. A 10 cycle (1 second/cycle) baseline measurement is taken and then the FDSS online 1536 pintool delivers 23 nl of compound library (as well as dopamine controls) to the plate. The plate is measured for kinetically at 1 cycle/sec for 180 seconds and is considered to be the agonist portion of the assay (eg, compounds which activate a positive calcium response during this portion are flagged as potential agonists). Following the 180 second read, 1 ul of an EC20 of dopamine is delivered by an onboard pipette head. Measurements are taken kinetically for an additional 180 seconds.
row,Structure (SMILES),potentiation
1,COc1ccc(C(=O)NCC2(N3CCOCC3)CCCCC2)cc1OC,inactive: -1.8%
2,CCC(CO)(C(=O)OC1CN2CCC1CC2)c1ccccc1 (stereo unspecified),inactive: 5.21%
3,COc1cc(C(=O)NCC2(N3CCOCC3)CCCCC2)cc(OC)c1OC,inactive: 0.35%
4,COc1cc(OC)cc(C(=O)NCC2(N3CCOCC3)CCCCC2)c1,inactive: 4.08%
5,COc1cccc(C(=O)N(c2cc(C)cc(C)c2)C2CCN(C(=O)OC(C)(C)C)CC2)c1,inactive: 0.95%
6,CCCOc1ccc(C)cc1CN(CCCl)CCCl,inactive: 1.5%
7,CN1CCC(Nc2ccc(Cl)cc2)CC1,inactive: -6%
8,CCOc1ncccc1C(=O)NCC1(N2CCOCC2)CCCCC1,inactive: 1.25%
9,CN1CCC(Nc2ccc(F)c(Cl)c2)CC1,inactive: -6.5%
10,CCCOc1ccc(C(=O)NCC2(N(C)C)CCCCC2)cc1,inactive: -0.65%
11,CC(C)(C)OC(=O)N1CCC(Nc2ccccc2)CC1,inactive: -4%
12,O=C(O)C1(Nc2ccccc2)CCN(Cc2ccccc2)CC1,inactive: 5.55%
13,CCN1CCC(Nc2cccc(F)c2)CC1,inactive: -2%
14,O=C(NCC1(N2CCCCC2)CCCCC1)c1ccco1,inactive: -4.65%
15,CC(C)(C)c1ccc(C(=O)NCC2(N3CCOCC3)CCCCC2)cc1,inactive: 1.3%
16,CN(C)c1ccc(C(=O)NCC2(N3CCCCC3)CCCCC2)cc1,inactive: -1.3%
17,Cc1ccccc1C(=O)NCC1(N(C)C)CCCCC1,inactive: 1.75%
18,COc1cc(OC)cc(C(=O)NCC2(N3CCCCC3)CCCCC2)c1,inactive: 2.55%
19,CN(C)C1(CNC(=O)c2ccc(C(C)(C)C)cc2)CCCCC1,inactive: -1.4%
20,Cc1ccc(C(=O)NCC2(N3CCCCC3)CCCCC2)o1,inactive: 2.6%
21,Fc1ccccc1NC1CCN(Cc2ccccc2)CC1,inactive: -8.73%
